# Values quoted from earlier work in US20040022667A1 (priority 2001, published 2004).
# Settings: versus Cl2; cited from earlier work
substance,measurement,value
Chlorine dioxide,solubility in water relative to chlorine gas (Cl2),approximately 5 times
